Values of other authors in patent US20050272649A1, “Conjoint administration of morphogens and ACE inhibitors in treatment of chronic renal failure” (priority 2002, published 2005).

Biological target: AT1 receptor (Homo sapiens, UniProt P30556)
Conditions: cited from earlier work

| Compound | affinity for the AT1 receptor relative to affinity for the AT2 receptor |
| --- | --- |
| CCCCC(=O)N(Cc1ccc(-c2ccccc2-c2nnn[nH]2)cc1)[C@H](C(=O)O)C(C)C [Valsartan] | about 20,000 times |
| CCCCc1nc(Cl)c(CO)n1Cc1ccc(-c2ccccc2-c2nn[nH]n2)cc1 [Losartan] | about 1,000 times |
| CCCc1nc2c(C)cc(-c3nc4ccccc4n3C)cc2n1Cc1ccc(-c2ccccc2C(=O)O)cc1 [Telmisartan] | more than 3,000 times |
